In article PMC10254235, “Design, Synthesis, and Anti-Cervical Cancer and Reversal of Tumor Multidrug Resistance Activity of Novel Nitrogen-Containing Heterocyclic Chalcone Derivatives” (Molecules, 2023):

System: p-VEGFR-2
Assay: Western blot, VEGFR-2 phosphorylation in HUVEC cells

CNC(=O)c1cc(Oc2ccc(NC(=O)Nc3ccc(Cl)c(C(F)(F)F)c3)cc2)ccn1 [Sorafenib, reference compound]
phosphorylation of VEGFR-2 in HUVEC cells (Western blot): significantly inhibited the phosphorylation of VEGFR-2
